Data published in patent EP4592276A1, “NOVEL ACY[…] OF PSILOCIN AND RELATED 4-HYDROXYT[…] BY AN EFFICIENT […] APPROACH” (Universität Heidelberg, priority 2024, dated 2025).

Assay: Drug release kinetics (prodrug cleavage) in human blood plasma
Assay type: in vitro ADME
Conditions: 100 % human plasma, 37 °C, [ASS]0 = 560 µM

CC(=O)Oc1ccccc1C(=O)O [Acetylsalicylic acid, reference compound] gave a half-life at 560 µM of 146 ± 19 min.
